Reference: patent publication US5118791A, “Biologically active polypeptides based on transforming growth factor-β” (Genentech, Inc., priority 1991, dated 1992)

System: WI-38 human fibroblasts
Test: Stimulation of PGE2 production from IL-1 treated fibroblasts
Format: cell-based
Details: IL-1 treated WI-38 cells, overnight; conjugate and HSA diluted 1:10 and 1:20, dimer 100 and 50 μM; FIG. 2
Description: Three to four days before assay WI-38 human fibroblasts (from the American Type Culture Collection, Rockville, MD) were seeded in 96-well flat-bottom plates. On the day of the assay IL-1 was diluted to 2 u/ml in assay medium (modified Eagle's medium with 10% fetal bovine serum, L-glutamine, and penicillin/streptomycin (Gibco, Grand Island, NY)). Samples to be tested were diluted 1:1 with the IL-1. To each of duplicate wells of the WI-38 cells was added 100 μl of sample. The plates were incubated overnight at 37° C. with 5% carbon dioxide. Supernatant from each well was collected for assay of amount of PGE2 released. Thus, twenty μl of each supernatant was added to 80 μl of RIA assay buffer and the diluted supernatant was assayed for PGE2 according to the directions of the supplier (PGE2 RIA kit, DuPont NEN, cat. #NEK-020).

With “HSA control: human serum albumin alone processed in an identical manner, used as additional control” the “stimulation of PGE2 production from fibroblasts” value was “inactive”.
